Measured values from ChEMBL document CHEMBL5046322, “Discovery of SHR2415, a Novel Pyrrole-Fused Urea Scaffold ERK1/2 Inhibitor” (ACS Med Chem Lett, 2022).
pIC50: −log10 of the molar value.

By UniProt entry, the sequences of proteins in these tests, tags left out.
UniProt P27361, whole entry: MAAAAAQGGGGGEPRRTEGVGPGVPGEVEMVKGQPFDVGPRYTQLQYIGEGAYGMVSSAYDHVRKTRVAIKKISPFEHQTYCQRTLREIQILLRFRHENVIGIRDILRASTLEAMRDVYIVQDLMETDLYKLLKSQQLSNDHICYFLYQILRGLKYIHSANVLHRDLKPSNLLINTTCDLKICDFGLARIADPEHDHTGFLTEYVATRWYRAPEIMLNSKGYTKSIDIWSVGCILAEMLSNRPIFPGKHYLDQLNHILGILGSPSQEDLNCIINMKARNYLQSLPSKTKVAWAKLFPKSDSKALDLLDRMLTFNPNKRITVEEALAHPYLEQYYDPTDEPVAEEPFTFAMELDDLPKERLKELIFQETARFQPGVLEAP
UniProt P28482, whole entry: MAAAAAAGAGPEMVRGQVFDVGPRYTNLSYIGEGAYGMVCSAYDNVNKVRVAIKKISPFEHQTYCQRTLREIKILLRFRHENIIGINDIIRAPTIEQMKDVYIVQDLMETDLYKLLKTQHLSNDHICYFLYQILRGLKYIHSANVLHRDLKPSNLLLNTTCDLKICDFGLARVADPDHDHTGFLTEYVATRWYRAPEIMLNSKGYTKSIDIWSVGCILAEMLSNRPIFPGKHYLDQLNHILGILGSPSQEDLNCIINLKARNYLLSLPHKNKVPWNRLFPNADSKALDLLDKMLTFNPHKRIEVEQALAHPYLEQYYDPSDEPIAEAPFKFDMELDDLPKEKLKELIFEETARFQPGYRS

Key:
[1] = biological target: Mitogen-activated protein kinase 3 (Homo sapiens, UniProt P27361); assay: Inhibition of ERK1 (unknown origin) measured after 2 hr by ADP-glo assay
[2] = biological target: Mitogen-activated protein kinase 1 (Homo sapiens, UniProt P28482); assay: Inhibition of ERK2 (unknown origin) measured after 2 hr by ADP-glo assay

SMILES: Cc1cnc(Nc2ccnn2C)nc1-c1cc2n(c1)C(=O)N([C@H](CO)c1cccc(Cl)c1)C2
- pIC50 [1]: 8.56

SMILES: C[C@@H](CO)Nc1ncc(Cl)c(-c2cc3n(c2)C(=O)N([C@H](CO)c2cccc(Cl)c2)C3)n1
- pIC50 [2]: 8.14
